By UniProt entry, the sequences of proteins in these tests, tags left out. Residues count along the entry.
UniProt P05556, 21-798 limits assumed: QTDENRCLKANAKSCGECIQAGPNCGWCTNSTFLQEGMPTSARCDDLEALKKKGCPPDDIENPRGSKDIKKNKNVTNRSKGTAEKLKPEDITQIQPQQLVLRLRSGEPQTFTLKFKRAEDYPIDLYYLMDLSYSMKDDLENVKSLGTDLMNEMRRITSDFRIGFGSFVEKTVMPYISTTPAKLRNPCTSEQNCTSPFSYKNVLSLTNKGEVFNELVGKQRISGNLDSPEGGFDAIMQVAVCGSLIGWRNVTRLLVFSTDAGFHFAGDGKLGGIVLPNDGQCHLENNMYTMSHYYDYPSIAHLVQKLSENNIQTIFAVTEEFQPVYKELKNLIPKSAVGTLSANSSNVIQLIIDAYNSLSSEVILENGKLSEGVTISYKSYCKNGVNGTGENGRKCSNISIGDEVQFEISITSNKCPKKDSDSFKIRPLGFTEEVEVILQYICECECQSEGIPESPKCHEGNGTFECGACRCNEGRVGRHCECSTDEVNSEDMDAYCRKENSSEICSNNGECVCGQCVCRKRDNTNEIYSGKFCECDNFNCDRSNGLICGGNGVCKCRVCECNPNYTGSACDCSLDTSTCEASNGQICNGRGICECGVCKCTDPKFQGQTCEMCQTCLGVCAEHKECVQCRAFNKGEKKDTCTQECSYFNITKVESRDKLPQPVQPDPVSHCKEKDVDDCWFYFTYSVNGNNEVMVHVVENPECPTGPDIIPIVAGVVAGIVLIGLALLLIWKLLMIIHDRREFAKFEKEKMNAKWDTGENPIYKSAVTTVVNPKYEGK
UniProt P13612, 34-1032 limits assumed: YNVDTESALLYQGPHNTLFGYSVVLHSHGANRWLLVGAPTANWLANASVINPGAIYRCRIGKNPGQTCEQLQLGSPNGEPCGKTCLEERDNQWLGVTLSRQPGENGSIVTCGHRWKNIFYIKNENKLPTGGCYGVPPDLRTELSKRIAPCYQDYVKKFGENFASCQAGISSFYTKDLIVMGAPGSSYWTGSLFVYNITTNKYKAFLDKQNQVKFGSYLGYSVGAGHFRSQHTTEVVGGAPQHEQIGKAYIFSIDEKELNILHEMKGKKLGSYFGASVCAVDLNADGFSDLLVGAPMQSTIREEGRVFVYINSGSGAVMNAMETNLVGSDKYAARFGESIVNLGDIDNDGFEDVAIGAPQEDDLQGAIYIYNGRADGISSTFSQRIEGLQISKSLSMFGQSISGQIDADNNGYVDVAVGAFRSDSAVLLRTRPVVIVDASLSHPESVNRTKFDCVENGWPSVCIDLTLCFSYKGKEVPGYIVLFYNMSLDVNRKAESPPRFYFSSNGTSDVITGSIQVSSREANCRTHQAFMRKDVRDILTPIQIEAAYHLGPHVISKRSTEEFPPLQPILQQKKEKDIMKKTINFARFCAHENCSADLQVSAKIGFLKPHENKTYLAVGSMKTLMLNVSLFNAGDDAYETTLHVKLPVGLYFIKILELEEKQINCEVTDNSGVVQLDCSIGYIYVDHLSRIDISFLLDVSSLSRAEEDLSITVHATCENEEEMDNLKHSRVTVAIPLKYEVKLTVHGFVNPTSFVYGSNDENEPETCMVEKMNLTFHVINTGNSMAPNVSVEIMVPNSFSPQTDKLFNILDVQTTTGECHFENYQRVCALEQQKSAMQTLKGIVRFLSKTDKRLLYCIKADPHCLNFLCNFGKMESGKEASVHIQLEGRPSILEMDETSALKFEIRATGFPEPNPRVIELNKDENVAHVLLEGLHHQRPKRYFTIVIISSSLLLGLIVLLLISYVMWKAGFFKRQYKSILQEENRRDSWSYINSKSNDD

In patent US7157487B2, “Vla-4 inhibitors” (Daiichi Pharmaceutical Co., Ltd., priority 2000, dated 2007):

Target: integrins haα4 and β1 (VLA-4) expressed on CHO cells (Homo sapiens, UniProt P05556+P13612)
Assay: In vitro Evaluation Test (1): binding of Eu3+-hVCAM-1 D1D7-IgG to CHO cells expressing integrins α4 and β1
Conditions: inhibition of Eu3+-hVCAM-1 D1D7-IgG binding to CHO cells expressing α4β1; Ki calculated from IC50

SMILES: CO[C@H]1C[C@@H](COC2CCC(C(=O)O)CC2)N(C(=O)Cc2ccc3nc(Nc4ccccc4C)oc3c2)C1 (single isomer, unassigned) [20 (Isomer A)]
- Ki: 3.9 nM
